Experimental data: ChEMBL document CHEMBL1150771, “Synthesis and potency of novel uracil nucleotides and derivatives as P2Y2 and P2Y6 receptor agonists” (Bioorg Med Chem, 2008)

Protein sequences, listed by entry. Tags and fused reporters are not part of them. Lines headed by an entry give the natural chain unless they say otherwise; changes in a name come on top.
UniProt P41231, whole entry, looked up: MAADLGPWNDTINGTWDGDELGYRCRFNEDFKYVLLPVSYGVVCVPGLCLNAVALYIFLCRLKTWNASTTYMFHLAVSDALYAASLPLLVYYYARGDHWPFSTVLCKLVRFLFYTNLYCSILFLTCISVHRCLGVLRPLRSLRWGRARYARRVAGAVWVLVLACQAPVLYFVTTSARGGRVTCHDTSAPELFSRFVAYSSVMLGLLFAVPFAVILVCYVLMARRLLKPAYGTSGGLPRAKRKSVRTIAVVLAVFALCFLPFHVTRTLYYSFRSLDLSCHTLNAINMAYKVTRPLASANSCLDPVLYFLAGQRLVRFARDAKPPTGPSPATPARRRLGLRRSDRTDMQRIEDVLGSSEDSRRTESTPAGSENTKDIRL
UniProt Q15077, whole entry, looked up: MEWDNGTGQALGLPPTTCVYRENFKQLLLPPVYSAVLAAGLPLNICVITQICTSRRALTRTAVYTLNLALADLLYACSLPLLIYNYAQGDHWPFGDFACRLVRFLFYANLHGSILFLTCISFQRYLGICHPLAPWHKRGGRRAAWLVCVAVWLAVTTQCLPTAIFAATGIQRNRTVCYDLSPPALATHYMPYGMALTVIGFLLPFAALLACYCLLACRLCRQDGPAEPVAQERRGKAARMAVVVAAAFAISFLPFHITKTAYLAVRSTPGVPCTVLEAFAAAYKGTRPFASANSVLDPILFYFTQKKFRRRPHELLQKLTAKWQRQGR
UniProt P51582, whole entry, looked up: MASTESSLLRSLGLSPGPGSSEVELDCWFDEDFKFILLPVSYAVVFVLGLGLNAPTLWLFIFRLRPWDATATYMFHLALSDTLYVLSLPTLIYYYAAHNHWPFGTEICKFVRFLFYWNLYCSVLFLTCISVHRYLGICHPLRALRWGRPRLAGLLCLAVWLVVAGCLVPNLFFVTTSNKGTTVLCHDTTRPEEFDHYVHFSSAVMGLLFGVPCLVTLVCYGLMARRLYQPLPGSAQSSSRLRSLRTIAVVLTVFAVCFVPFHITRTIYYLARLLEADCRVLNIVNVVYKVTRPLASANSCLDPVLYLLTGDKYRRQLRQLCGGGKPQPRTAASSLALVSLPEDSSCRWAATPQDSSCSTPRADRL

What was measured:
Details in all cases: 1321-n1
P2Y purinoceptor 2 = P2Y purinoceptor 2 (Homo sapiens, UniProt P41231)
P2Y purinoceptor 6 = P2Y purinoceptor 6 (Homo sapiens, UniProt Q15077)
P2Y purinoceptor 4 = P2Y purinoceptor 4 (Homo sapiens, UniProt P51582)

CP(=O)(O)OP(=O)(O)OP(=O)(O)OP(=O)(O)OC[C@H]1O[C@@H](n2ccc(=O)[nH]c2=O)[C@H](O)[C@@H]1O
EC50 (P2Y purinoceptor 2): 4.18 µM
EC50 (P2Y purinoceptor 6): 8.16 µM
EC50 (P2Y purinoceptor 4): 2.53 µM
